The results in this text go back to patent US10189782B2, “Derivatives of indole for the treatment of cancer, viral infections and lung diseases” (BIOKINESIS, priority 2012, dated 2019).

Amino acid sequences for entries named in this document (tags omitted). Residues count along the entry.
UniProt O95235, 1-519 limits assumed: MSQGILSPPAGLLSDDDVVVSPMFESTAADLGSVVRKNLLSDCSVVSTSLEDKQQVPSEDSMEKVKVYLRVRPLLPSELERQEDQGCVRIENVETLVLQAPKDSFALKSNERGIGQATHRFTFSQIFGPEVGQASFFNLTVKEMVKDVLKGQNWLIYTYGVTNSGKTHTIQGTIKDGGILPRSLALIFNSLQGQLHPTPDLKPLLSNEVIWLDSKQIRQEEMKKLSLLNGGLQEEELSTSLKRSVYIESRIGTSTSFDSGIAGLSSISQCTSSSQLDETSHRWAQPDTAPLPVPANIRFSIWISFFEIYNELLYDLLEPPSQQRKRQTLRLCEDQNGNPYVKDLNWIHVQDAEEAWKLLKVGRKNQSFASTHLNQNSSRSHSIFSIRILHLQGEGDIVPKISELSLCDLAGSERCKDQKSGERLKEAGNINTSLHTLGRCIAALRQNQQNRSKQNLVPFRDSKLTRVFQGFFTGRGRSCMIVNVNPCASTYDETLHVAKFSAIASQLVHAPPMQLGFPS

Assay [1] concerns the target Human recombinant MKlp2 motor domain1-519, His tagged (Homo sapiens, UniProt O95235). Kind of assay: Microtubule stimulated ATPase activity of the MKlp2 motor domain (Kinesin ELIPA Assay Kit). The note with it: read-out: MKIp2 IC50, Table 6 (prodrugs, formula II).
The test system of another assay is K562 cells. The experiment in a line: Cytotoxicity on human cancer cells (WST-1), K562. The note with it: read-out: K562 IC50, Table 6 (prodrugs, formula II), WST-1 on D4. The method, then:
Evaluation of Cytotoxicity Effects on Human Cancer Cells
The effects of the compounds of the invention on the viability of human cancer cells were studied on various human cancer cell lines of differing tissue origins (A549, NCI-H460: lung cancer; MDA-MB-231: breast cancer; HCT-116, HT-29: colon cancer; MIA-PaCa-2: pancreatic cancer; K562: leukaemia). All cell lines were obtained from ATCC or ECACC. Cells were cultured in the culture media described below, under a 37° C., 5% CO2 humidified atmosphere, according to a standard operating procedure.
On D0, the cells were plated in 90 μl in 96 wells plates at densities ranging from 500 to 5,000 cells per well.
Following addition of the test substance the cells were protected from light. The solvents (DMSO and specific control solvent were added at the maximal concentration: 10 μl/well (3 wells/condition)).
On D4, the Cell Proliferation Reagent WST-1 was added to each well (10 μl/well), according to a standard operating procedure. The cells were then incubated for 30 min to 4 h at 37° C.-5% CO2. After these incubations, the 96-well plates were shaken thoroughly for 1 min with Multiskan® EX apparatus (Thermo Labsystems, France). The absorbence was measured at 450 nm, the reference wavelength being 620 nm. […]
In general terms: Tetrazolium dyes change colour on reduction, which living cells bring about.

For the compound `COc1ccncc1/C=C(\C#N)c1cn(C(=O)CN(C)C)c2ccc(Br)cc12`, the IC50 in assay [1] is 400 nM; in the assay with K562 cells, 330 nM.

One may read the IC50 as the point on the concentration scale where inhibition reaches its midpoint.
